Consider five compounds from US10246462B2, “Chemokine receptor modulators and uses thereof” (FLX Bio, Inc., priority 2016, dated 2019).

The chains behind the UniProt entries cited, without tags or fusion partners. Where a name states a change or a piece, a line headed by the entry shows the natural chain unless it says otherwise.
UniProt P51679: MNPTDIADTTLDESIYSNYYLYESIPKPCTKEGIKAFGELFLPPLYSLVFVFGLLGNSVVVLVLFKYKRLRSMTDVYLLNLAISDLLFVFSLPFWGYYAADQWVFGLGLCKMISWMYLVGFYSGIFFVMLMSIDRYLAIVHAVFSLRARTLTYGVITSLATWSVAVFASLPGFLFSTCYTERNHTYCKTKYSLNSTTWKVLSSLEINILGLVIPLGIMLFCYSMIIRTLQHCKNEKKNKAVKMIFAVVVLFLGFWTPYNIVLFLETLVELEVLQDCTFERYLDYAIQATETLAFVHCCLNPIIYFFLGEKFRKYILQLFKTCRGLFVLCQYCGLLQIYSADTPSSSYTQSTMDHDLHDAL

Structures are written as SMILES. Counter-ions that a name gives are not always drawn.

The target in this experiment is CCR4 (Homo sapiens (Human), UniProt P51679). Briefly: Calcium mobilization (Ca Flux) assay. In kind it is cell-based. The procedure: Calcium Mobilization Assay. Calcium mobilization experiments may be performed by labeling the human T-cell line CEM with […] dye (45 min at room temperature), washing with PBS, and re-suspending into flux buffer (HBSS with 1% FBS). For each experiment, 1×10^6 cells may be incubated at 37° C. in the cuvette of a PTI spectrometer, and the ratio of 410/490 nm emission plotted over time (typically 2-3 minutes), with compounds added at 5 seconds, followed by MDC, TARC or other chemokines.
(Calcium assays in cells follow changes in intracellular calcium, usually with a dye or a luminescent sensor.)

As to `Cc1nn([C@H](C)c2ccc(Cl)cc2Cl)c2nc(N3CC[C@H](N4CCC4)[C@H](C)C3)cnc12` [Example 13, 6-((3R,4S)-4-(Azetidin-1-yl)-3-methylpiperidin-1-yl)-1-((R)-1-(2,4-dichlorophenyl)ethyl)-3-methyl-1H-pyrazolo[3,4-b]pyrazine hydrochloride], the IC50 (in general, the point on the concentration scale where inhibition reaches its midpoint) was < 100 nM.
As for `Cc1nn([C@H](C)c2ccc(Cl)cc2Cl)c2nc(N3CC[C@H](N4CCCCCC4)[C@H](C)C3)cnc12` [Example 14, 6-((3R,4S)-4-(Azepan-1-yl)-3-methylpiperidin-1-yl)-1-((R)-1-(2,4-dichlorophenyl)ethyl)-3-methyl-1H-pyrazolo[3,4-b]pyrazine hydrochloride], the figure is < 100 nM; as for `Cc1nn([C@H](C)c2ccc(Cl)cc2Cl)c2nc(N3CC[C@@H](N4CCCCCC4)[C@@H](C)C3)cnc12` [Example 15, 6-((3S,4R)-4-(Azepan-1-yl)-3-methylpiperidin-1-yl)-1-((R)-1-(2,4-dichlorophenyl)ethyl)-3-methyl-1H-pyrazolo[3,4-b]pyrazine hydrochloride], > 500 nM.
As for `Cc1nn([C@H](C)c2ccc(Cl)cc2Cl)c2nc(N3CC[C@H](N4CCC[C@H]4CO)[C@H](C)C3)cnc12` [Example 31, ((S)-1-((3R,4S)-1-(1-((R)-1-(2,4-Dichlorophenyl)ethyl)-3-methyl-1H-pyrazolo[3,4-b]pyrazin-6-yl)-3-methylpiperidin-4-yl)pyrrolidin-2-yl)methanol hydrochloride], the figure is < 100 nM; as for `Cc1nn([C@H](C)c2ccc(Cl)cc2Cl)c2nc(N3CC[C@@H](N4CCC[C@H]4CO)[C@@H](C)C3)cnc12` [Example 32, ((S)-1-((3S,4R)-1-(1-((R)-1-(2,4-Dichlorophenyl)ethyl)-3-methyl-1H-pyrazolo[3,4-b]pyrazin-6-yl)-3-methylpiperidin-4-yl)pyrrolidin-2-yl)methanol hydrochloride], > 500 nM.
